Measured values reported in patent publication US10807989B2, “3-(carboxymethyl)-8-amino-2-oxo-1,3-diaza-spiro-[4.5]-decane derivatives” (dated 2020).

Amino acid sequences for entries named in this document (tags omitted). A change or cut given only in a name is not applied to a line headed by its entry.
UniProt P41146: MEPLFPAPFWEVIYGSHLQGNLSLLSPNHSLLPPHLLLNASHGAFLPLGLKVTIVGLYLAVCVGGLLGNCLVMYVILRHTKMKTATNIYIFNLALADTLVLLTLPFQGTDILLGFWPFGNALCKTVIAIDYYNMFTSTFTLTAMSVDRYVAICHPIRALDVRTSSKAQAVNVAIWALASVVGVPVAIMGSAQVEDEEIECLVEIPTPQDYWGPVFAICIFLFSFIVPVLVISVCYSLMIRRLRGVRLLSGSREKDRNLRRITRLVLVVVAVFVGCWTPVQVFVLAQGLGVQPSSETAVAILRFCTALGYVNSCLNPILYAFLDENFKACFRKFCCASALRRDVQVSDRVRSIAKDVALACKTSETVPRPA
UniProt P35372, whole entry, looked up: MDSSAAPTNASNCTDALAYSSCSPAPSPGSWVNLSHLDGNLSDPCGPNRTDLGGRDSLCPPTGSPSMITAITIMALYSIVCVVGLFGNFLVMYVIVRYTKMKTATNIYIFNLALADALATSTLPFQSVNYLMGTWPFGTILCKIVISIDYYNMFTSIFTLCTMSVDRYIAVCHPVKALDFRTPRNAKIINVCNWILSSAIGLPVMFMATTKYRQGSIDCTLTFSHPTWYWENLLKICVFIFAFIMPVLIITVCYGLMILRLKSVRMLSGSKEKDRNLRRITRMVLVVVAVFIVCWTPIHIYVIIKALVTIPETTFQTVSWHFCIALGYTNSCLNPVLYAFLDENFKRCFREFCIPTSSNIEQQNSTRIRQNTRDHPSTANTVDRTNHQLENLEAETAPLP

Legend:
[1] = molecular target: human nociceptin/orphanin FQ peptide (hNOP) receptor (Homo sapiens (Human), UniProt P41146); test: hNOP receptor binding assay (SPA, [leucyl-3H]nociceptin); conditions: read-out: hNOP Ki
[2] = molecular target: human mu-opioid peptide (hMOP) receptor (Homo sapiens (Human), UniProt P35372); test: hMOP receptor binding assay (SPA, [3H]naloxone); conditions: read-out: hMOP Ki

Compound | Ki [1] [µM] | Ki [2] [µM]
COCCCN1C(=O)N(CC(=O)NC[C@H]2C[C@H](O)C2)C[C@]12CC[C@](c1ccccc1)(N(C)C)CC2 (relative stereo) | 0.047 | 
CN(C)[C@]1(c2ccccc2)CC[C@]2(CC1)CN(CC(=O)NC[C@H]1C[C@@H](O)C1)C(=O)N2CC1CCC1 (relative stereo) | 0.0031 | 0.0765
CN(C)[C@]1(c2ccccc2)CC[C@]2(CC1)CN(CC(=O)NC[C@H]1C[C@H](O)C1)C(=O)N2CC1CCC1 (relative stereo) | 0.0026 | 0.13
COCCCN1C(=O)N(CC(=O)NCC2CCC(O)C2)C[C@]12CC[C@](c1ccccc1)(N(C)C)CC2 (relative stereo) | 0.0955 | 
COCCCN1C(=O)N(CC(=O)NC[C@H]2C[C@@H](O)C2)C[C@]12CC[C@](c1ccccc1)(N(C)C)CC2 (relative stereo) | 0.11 | 
CN(C)[C@]1(c2ccccc2)CC[C@]2(CC1)CN(CC(=O)NCC1CCC(O)C1)C(=O)N2CC1CCC1 (relative stereo) | 0.0016 | 0.094
CN(C)[C@]1(c2ccccc2)CC[C@]2(CC1)CN(CC(=O)NCC1CCC(O)CC1)C(=O)N2CC1CCC1 (relative stereo) | 0.0018 | 0.0495
